Test results as given in ChEMBL document CHEMBL5729254, “Heterocyclic compound as JAK inhibitor, and salts and therapeutic use thereof” (2022).

The chains behind the UniProt entries cited, without tags or fusion partners. Where a name states a change or a piece, a line headed by the entry shows the natural chain unless it says otherwise.
UniProt O60674: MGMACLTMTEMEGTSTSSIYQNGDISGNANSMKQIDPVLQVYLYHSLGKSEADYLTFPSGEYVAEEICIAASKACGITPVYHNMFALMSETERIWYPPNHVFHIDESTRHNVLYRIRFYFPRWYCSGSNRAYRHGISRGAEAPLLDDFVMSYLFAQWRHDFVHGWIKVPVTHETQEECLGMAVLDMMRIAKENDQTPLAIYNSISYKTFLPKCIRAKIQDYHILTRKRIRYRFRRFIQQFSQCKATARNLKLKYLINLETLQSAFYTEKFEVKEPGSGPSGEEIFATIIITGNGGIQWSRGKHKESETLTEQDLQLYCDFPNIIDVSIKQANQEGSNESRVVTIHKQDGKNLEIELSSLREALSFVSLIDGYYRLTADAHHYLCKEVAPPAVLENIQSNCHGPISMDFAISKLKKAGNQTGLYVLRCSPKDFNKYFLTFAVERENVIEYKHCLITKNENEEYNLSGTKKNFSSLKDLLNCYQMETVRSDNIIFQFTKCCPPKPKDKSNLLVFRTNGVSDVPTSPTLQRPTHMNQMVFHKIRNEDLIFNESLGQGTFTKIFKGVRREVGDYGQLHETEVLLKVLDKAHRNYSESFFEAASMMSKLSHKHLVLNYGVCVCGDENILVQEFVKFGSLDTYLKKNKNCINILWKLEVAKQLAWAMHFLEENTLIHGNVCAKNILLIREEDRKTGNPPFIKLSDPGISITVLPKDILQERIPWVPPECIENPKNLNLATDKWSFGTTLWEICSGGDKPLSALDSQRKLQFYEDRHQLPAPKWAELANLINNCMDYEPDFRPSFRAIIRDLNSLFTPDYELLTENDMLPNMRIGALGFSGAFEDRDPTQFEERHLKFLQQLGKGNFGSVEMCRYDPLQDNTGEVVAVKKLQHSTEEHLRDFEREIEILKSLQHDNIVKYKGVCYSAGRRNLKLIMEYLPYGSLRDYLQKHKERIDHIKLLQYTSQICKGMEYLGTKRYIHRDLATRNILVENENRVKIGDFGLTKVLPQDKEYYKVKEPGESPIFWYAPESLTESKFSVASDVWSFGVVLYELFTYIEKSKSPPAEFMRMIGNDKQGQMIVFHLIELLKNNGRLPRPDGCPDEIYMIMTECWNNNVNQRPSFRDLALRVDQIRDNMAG

Biological target: Tyrosine-protein kinase JAK2 (Homo sapiens, UniProt O60674)

SMILES: CCS(=O)(=O)N1CC(CC#N)(n2cc(-c3ncnc4[nH]ccc34)cn2)C1 [BARICITINIB]
- IC50: 5.5 nM
